Reference: ChEMBL document CHEMBL4414612, “Synthesis and Pharmacological Evaluation of 1-Phenyl-3-Thiophenylurea Derivatives as Cannabinoid Type-1 Receptor Allosteric Modulators” (J Med Chem, 2019)

Amino acid sequences for entries named in this document (tags omitted).
UniProt P21554, whole entry: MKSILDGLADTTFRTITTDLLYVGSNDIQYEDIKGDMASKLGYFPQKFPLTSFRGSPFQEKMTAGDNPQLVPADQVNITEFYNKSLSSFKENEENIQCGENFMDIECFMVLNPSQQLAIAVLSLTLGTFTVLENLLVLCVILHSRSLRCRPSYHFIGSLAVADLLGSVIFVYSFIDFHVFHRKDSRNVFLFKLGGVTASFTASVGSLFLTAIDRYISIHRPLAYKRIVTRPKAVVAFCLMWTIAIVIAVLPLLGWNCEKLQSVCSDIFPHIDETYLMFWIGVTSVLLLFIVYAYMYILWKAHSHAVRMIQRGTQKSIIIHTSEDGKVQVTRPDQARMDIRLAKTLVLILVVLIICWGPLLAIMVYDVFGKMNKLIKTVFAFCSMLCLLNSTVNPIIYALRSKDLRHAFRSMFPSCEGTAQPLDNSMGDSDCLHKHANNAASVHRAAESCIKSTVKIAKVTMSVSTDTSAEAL

Target: T1, Cannabinoid receptor 1 (Homo sapiens, UniProt P21554)
Test: Allosteric modulator activity at human CB1 receptor expressed in HEK293 cells assessed as suppression of 100 nM CP55,940-induced reduction in forskolin-stimulated cAMP production pre-incubated for 25 mins before forskolin and CP55,940 addition and measured after 22 mins by BRET CAMYEL cAMP assay
Format: functional, cell-based

Row | Compound | IC50
1 | O=C(Nc1ccc(Cl)cc1)Nc1cccc(-c2cccc(N3CCCC3)n2)c1 | 2620 nM

Target: T1, Cannabinoid receptor 1
Test: Allosteric modulator activity at human CB1 receptor expressed in HEK293 cell membranes assessed as suppression of 100 nM CP55,940-induced [35S]GTPgammaS binding incubated for 60 mins by scintillation counting method
Format: functional

Row | Compound | IC50
2 | O=C(Nc1ccc(Cl)cc1)Nc1cccc(-c2cccc(N3CCCC3)n2)c1 | 455 nM

Target: T1, Cannabinoid receptor 1
Test: Agonist activity at human CB1 receptor expressed in CHO-RD-HGA16 cells co-expressing Galpha16 assessed as suppression stimulation of calcium mobilization incubated for 45 mins by Calcium 5 dye based FLIPR assay relative to CP55,940
Format: functional, cell-based

Row | Compound | Emax
3 | O=C(Nc1ccc(Cl)cc1)Nc1ccc(-c2ccncc2)s1 | < 30%
4 | O=C(Nc1ccc(Cl)cc1)Nc1ccc(-c2ccc(F)cc2)s1 | < 30%
5 | O=C(Nc1ccc(Cl)cc1)Nc1cccc(-c2ccccc2)n1 | < 30%
6 | O=C(Nc1ccc(Cl)cc1)Nc1ccc(-c2cc(Cl)cc(Cl)c2)s1 | < 30%
7 | COc1cccc(-c2ccc(NC(=O)Nc3ccc(Cl)cc3)s2)c1 | < 30%
8 | COc1ccc(-c2ccc(NC(=O)Nc3ccc(Cl)cc3)s2)cc1 | < 30%
9 | O=C(Nc1ccc(Cl)cc1)Nc1ccc(-c2ccccc2Cl)s1 | < 30%
10 | O=C(Nc1ccc(Cl)cc1)Nc1cncc(-c2ccccc2)c1 | < 30%
11 | CC(=O)c1cccc(-c2ccc(NC(=O)Nc3ccc(Cl)cc3)s2)c1 | < 30%
12 | CN(C)c1cccc(-c2ccc(NC(=O)Nc3ccc(Cl)cc3)s2)c1 | < 30%
13 | O=C(Nc1ccc(Cl)cc1)Nc1ccc(-c2ccc(F)cc2F)s1 | < 30%
14 | O=C(Nc1ccc(Cl)cc1)Nc1cc(-c2ccccc2)ccn1 | < 30%
15 | O=C(Nc1ccc(Cl)cc1)Nc1ccc(-c2ccc(Cl)c(Cl)c2)s1 | < 30%
16 | O=C(Nc1ccc(Cl)cc1)Nc1csc(-c2ccccc2)c1 | < 30%
17 | COc1ccccc1-c1ccc(NC(=O)Nc2ccc(Cl)cc2)s1 | < 30%
18 | O=C(Nc1ccc(Cl)cc1)Nc1ccnc(-c2ccccc2)c1 | < 30%
19 | O=C(Nc1ccc(Cl)cc1)Nc1ccc(-c2ccc(Cl)cc2)s1 | < 30%
20 | COc1ccc(-c2cccc(N3CCCC3)n2)cc1NC(=O)Nc1ccc(Cl)cc1 | < 30%
21 | CS(=O)(=O)c1cccc(-c2ccc(NC(=O)Nc3ccc(Cl)cc3)s2)c1 | < 30%
22 | O=C(Nc1ccc(Cl)cc1)Nc1ccc(-c2cccc(Cl)c2)s1 | < 30%
23 | Cc1cccc(-c2ccc(NC(=O)Nc3ccc(Cl)cc3)s2)c1 | < 30%
24 | COC(=O)c1cccc(-c2ccc(NC(=O)Nc3ccc(Cl)cc3)s2)c1 | < 30%
25 | O=C(Nc1ccc(Cl)cc1)Nc1ccc(-c2cccnc2)s1 | < 30%
26 | O=C(Nc1ccc(Cl)cc1)Nc1ccc(-c2cccc(F)c2)s1 | < 30%
27 | O=C(Nc1ccc(Cl)cc1)N[C@@H]1CCCN(c2ccccc2)C1 | < 30%
28 | O=C(Nc1ccc(Cl)cc1)Nc1ccc(-c2ccccc2)s1 | < 30%
29 | O=C(Nc1ccc(Cl)cc1)Nc1cc(-c2ccccc2)cs1 | < 30%
30 | O=C(Nc1ccc(Cl)cc1)Nc1ncc(-c2ccccc2)s1 | < 30%
